# In patent publication US20250197842A1, “IMPROVING ENZYMATIC CHANNELING EFFICIENCY VIA MIXED NANOPARTICLE SCAFFOLDS WITHIN SELF-ASSEMBLED NANOPARTICLE ENZYME CLUSTERS” (The Government of the United States of America, as …, priority 2023, published 2025):
# Substrate: C=C(OP(=O)(O)O)C(=O)O
# Test: purified protein, by the assay type
# Details: other: free enzyme (ratio 0); 2.5 nM PykA; apparent; pH 8.0
protein,measurement,value
"E. coli BL21(DE3) pyruvate kinase PykA (EC 2.7.1.40), N-terminal (His)6, SEQ ID NO 1, free in solution (Escherichia coli K-12) (protein) MGSSHHHHHHSSGLVPRGSHMSRRLRRTKIVTTLGPATDRDNNLEKVIAAGANVVRMNFSHGSPEDHKMRADKVREIAAKLGRHVAILGDLQGPKIRVSTFKEGKVFLNIGDKFLLDANLGKGEGDKEKVGIDYKGLPADVVPGDILLLDDGRVQLKVLEVQGMKVFTEVTVGGPLSNNKGINKLGGGLSAEALTEKDKADIKTAALIGVDYLAVSFPRCGEDLNYARRLARDAGCDAKIVAKVERAEAVCSQDAMDDIILASDVVMVARGDLGVEIGDPELVGIQKALIRRARQLNRAVITATQMMESMITNPMPTRAEVMDVANAVLDGTDAVMLSAETAAGQYPSETVAAMARVCLGAEKIPSINVSKHRLDVQFDNVEEAIAMSAMYAANHLKGVTAIITMTESGRTALMTSRISSGLPIFAMSRHERTLNLTALYRGVTPVHFDSANDGVAAASEAVNLLRDKGYLMSGDLVIVTQGDVMSTVGSTNTTRILTVE",Km,1.25 ± 0.1 mM
same,Vmax,3.78 µM/min
